According to US6958318B2, “Recombinant bacterial cells for delivery of PNP to tumor cells” (The UAB Research Foundation, priority 1993, dated 2005):
This is a selection: effects in other tests are not listed, and their absence says nothing.

By UniProt entry, the sequences of proteins in these tests, tags left out. Residues count along the entry.
UniProt P0ABP8, 2-239 limits assumed: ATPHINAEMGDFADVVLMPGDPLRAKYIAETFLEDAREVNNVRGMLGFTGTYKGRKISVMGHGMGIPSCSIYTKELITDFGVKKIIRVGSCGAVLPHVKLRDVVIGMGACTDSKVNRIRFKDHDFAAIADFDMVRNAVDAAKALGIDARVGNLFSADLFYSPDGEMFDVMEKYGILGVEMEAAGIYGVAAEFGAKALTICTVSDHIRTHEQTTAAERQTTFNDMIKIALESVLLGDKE
UniProt P00491, whole entry: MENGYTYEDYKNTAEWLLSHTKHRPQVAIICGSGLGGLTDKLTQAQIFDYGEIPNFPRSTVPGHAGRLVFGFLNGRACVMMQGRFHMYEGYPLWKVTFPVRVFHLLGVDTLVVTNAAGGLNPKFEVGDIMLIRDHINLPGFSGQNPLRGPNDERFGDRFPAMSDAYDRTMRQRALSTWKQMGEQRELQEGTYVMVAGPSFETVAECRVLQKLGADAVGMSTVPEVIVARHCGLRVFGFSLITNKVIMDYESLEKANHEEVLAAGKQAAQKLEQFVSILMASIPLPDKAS

Assays:
E. coli PNP = E. coli PNP (Escherichia coli, UniProt P0ABP8); assay: Cleavage of purine analog nucleosides by E. coli PNP (HPLC); type: biochemical
human PNP = human PNP (Homo sapiens, UniProt P00491); assay: Cleavage of purine analog nucleosides by human PNP (HPLC); type: biochemical; conditions: in words

## 2-Cl-2′-F-2′-deoxyadenosine
E. coli PNP; in words
  Substrate quality for bacterial (E. coli) PNP: poor substrates
E. coli PNP; substrate 100 μM, 100 μg/ml enzyme, 25° C., 1 hour, stopped by boiling, parentheses = positive control conversion
  Percent of substrate cleaved by E. coli PNP, 100 μM: 0(86) Percent
E. coli PNP; substrate 1 mM, 25° C., 1 hour, stopped by boiling
  Percent of substrate cleaved by E. coli PNP, 1 mM: 0(21) Percent
Human PNP
  Substrate quality for mammalian (human) PNP: poor substrates
